Data reported in PubChem BioAssay (NCI).
Some tests of the compounds listed are not included; inactive here does not mean inactive elsewhere.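 Protocol summary: plate cells (96-well), add compound at 5 concentrations, incubate 48 h, interpolate endpoints linearly. The concentration for 50% growth inhibition is given as GI50. TGI: concentration producing complete growth inhibition.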

Legend:
Experiment in all cases: inhibition of tumour cell growth, NCI panel, 48 h
[1] = test system: NCI/ADR-RES ovarian
[2] = test system: HCT-15 colon
[3] = test system: K-562 leukemia
[4] = test system: BT-549 breast
[5] = test system: NCI-H322M lung
[6] = test system: HOP-92 NSCLC
[7] = test system: MOLT-4 leukemia
[8] = test system: MDA-MB-435
[9] = test system: MCF7 breast
[10] = test system: MDA-MB-231 breast
[11] = test system: CCRF-CEM leukemia
[12] = test system: COLO 205 colon
[13] = test system: RXF 393 renal
[14] = test system: SF-539 CNS
[15] = test system: HCT-116 colon
[16] = test system: HL-60(TB) leukemia
[17] = test system: SF-268 CNS
[18] = test system: NCI-H23 lung
[19] = test system: IGROV1 ovarian
[20] = test system: HS 578T breast
[21] = test system: HT29 colon
[22] = test system: SK-OV-3 ovarian
[23] = test system: U251 CNS
[24] = test system: RPMI-8226 leukemia
[25] = test system: TK-10 renal
[26] = test system: NCI-H522 lung
[27] = test system: A549 NSCLC
[28] = test system: DU-145 prostate
[29] = test system: MDA-N
[30] = test system: SK-MEL-5 melanoma
[31] = test system: PC-3 prostate
[32] = test system: SK-MEL-28 melanoma
[33] = test system: NCI-H226 lung
[34] = test system: CAKI-1 renal
[35] = test system: OVCAR-8 ovarian
[36] = test system: T-47D breast
[37] = test system: SF-295 CNS
[38] = test system: UACC-257 melanoma
[39] = test system: OVCAR-5 ovarian
[40] = test system: HOP-62 NSCLC
[41] = test system: ACHN renal
[42] = test system: LOX IMVI melanoma
[43] = test system: EKVX NSCLC
[44] = test system: OVCAR-3 ovarian
[45] = test system: SK-MEL-2 melanoma
[46] = test system: SNB-75 CNS
[47] = test system: UACC-62 melanoma
[48] = test system: M14 melanoma
[49] = test system: SN12C renal
[50] = test system: UO-31 renal
[51] = test system: A498 renal
[52] = test system: MALME-3M melanoma
[53] = test system: 786-0 renal
[54] = test system: SR leukemia
[55] = test system: SNB-19 CNS
[56] = test system: OVCAR-4 ovarian

With CC(C)C#CC(O)(C(=O)OC1C2CCN(CC2)C1C)C1CCCCC1 (configuration not stated) the GI50 [1] was greater than 100 µM, the TGI [1] was greater than 100 µM and the GI50 [2] was greater than 100 µM. For the same compound, the TGI [2] was greater than 100 µM, the GI50 [3] was 24.8 µM and the TGI [3] was 57.6 µM. It also gave a GI50 [4] greater than 100 µM, a TGI [4] greater than 100 µM and a GI50 [5] greater than 100 µM. The TGI [5] was greater than 100 µM, the GI50 [6] was 29.9 µM and the TGI [6] was greater than 100 µM. For the same compound, the GI50 [7] was 41.3 µM, the TGI [7] was greater than 100 µM and the GI50 [8] was greater than 100 µM. For the same compound, the TGI [8] was greater than 100 µM, the GI50 [9] was 81.8 µM and the TGI [9] was greater than 100 µM. For the same compound, the GI50 [10] was 44.9 µM, the TGI [10] was greater than 100 µM and the GI50 [11] was 48.9 µM. It also gave a TGI [11] greater than 100 µM, a GI50 [12] of 32.6 µM and a TGI [12] greater than 100 µM. The GI50 [13] was 21.4 µM, the TGI [13] was greater than 100 µM and the GI50 [14] was 79.5 µM. The TGI [14] was greater than 100 µM, the GI50 [15] was 89.3 µM and the TGI [15] was greater than 100 µM. For the same compound, the GI50 [16] was 37.6 µM, the TGI [16] was greater than 100 µM and the GI50 [17] was 81.4 µM. It also gave a TGI [17] greater than 100 µM, a GI50 [18] greater than 100 µM and a TGI [18] greater than 100 µM. The GI50 [19] was 73.9 µM, the TGI [19] was greater than 100 µM and the GI50 [20] was 38.9 µM. The TGI [20] was greater than 100 µM, the GI50 [21] was 25.9 µM and the TGI [21] was 97.1 µM. For the same compound, the GI50 [22] was greater than 100 µM, the TGI [22] was greater than 100 µM and the GI50 [23] was greater than 100 µM. For the same compound, the TGI [23] was greater than 100 µM, the GI50 [24] was 47.6 µM and the TGI [24] was greater than 100 µM. It also gave a GI50 [25] of 62.6 µM, a TGI [25] greater than 100 µM and a GI50 [26] of 76.5 µM. For the same compound, the TGI [26] was greater than 100 µM, the GI50 [27] was greater than 100 µM and the TGI [27] was greater than 100 µM. The GI50 [28] was greater than 100 µM, the TGI [28] was greater than 100 µM and the GI50 [29] was 95.9 µM. The TGI [29] was greater than 100 µM, the GI50 [30] was 18.2 µM and the TGI [30] was 32.6 µM. It also gave a GI50 [31] of 48 µM, a TGI [31] greater than 100 µM and a GI50 [32] of 35.2 µM. It also gave a TGI [32] greater than 100 µM, a GI50 [33] of 63.6 µM and a TGI [33] greater than 100 µM. For the same compound, the GI50 [34] was greater than 100 µM, the TGI [34] was greater than 100 µM and the GI50 [35] was greater than 100 µM. The TGI [35] was greater than 100 µM, the GI50 [36] was greater than 100 µM and the TGI [36] was greater than 100 µM. The GI50 [37] was greater than 100 µM, the TGI [37] was greater than 100 µM and the GI50 [38] was 15.8 µM. The TGI [38] was 34.2 µM, the GI50 [39] was 65.4 µM and the TGI [39] was greater than 100 µM. It also gave a GI50 [40] greater than 100 µM, a TGI [40] greater than 100 µM and a GI50 [41] greater than 100 µM. It also gave a TGI [41] greater than 100 µM, a GI50 [42] of 34.4 µM and a TGI [42] greater than 100 µM. The GI50 [43] was greater than 100 µM, the TGI [43] was greater than 100 µM and the GI50 [44] was 97.8 µM. For the same compound, the TGI [44] was greater than 100 µM, the GI50 [45] was greater than 100 µM and the TGI [45] was greater than 100 µM. It also gave a GI50 [46] of 37 µM, a TGI [46] greater than 100 µM and a GI50 [47] greater than 100 µM. For the same compound, the TGI [47] was greater than 100 µM, the GI50 [48] was 15.9 µM and the TGI [48] was 30 µM. It also gave a GI50 [49] greater than 100 µM, a TGI [49] greater than 100 µM and a GI50 [50] of 54.2 µM. It also gave a TGI [50] greater than 100 µM, a GI50 [51] greater than 100 µM and a TGI [51] greater than 100 µM. It also gave a GI50 [52] of 28.4 µM, a TGI [52] of 85.5 µM and a GI50 [53] of 75.1 µM. The TGI [53] was greater than 100 µM, the GI50 [54] was 34.8 µM and the TGI [54] was 62.9 µM. For the same compound, the GI50 [55] was greater than 100 µM, the TGI [55] was greater than 100 µM and the GI50 [56] was 51.4 µM. For the same compound, the TGI [56] was greater than 100 µM.
